# Assay results published in ChEMBL document CHEMBL2029275, “Structure-activity relationship of a series of non peptidic RGD integrin antagonists targeting α5β1: part 2” (Bioorg Med Chem Lett, 2012).
# Protein sequences, listed by entry. Tags and fused reporters are not part of them. Residues count along the entry.
# UniProt P08648, 895-1049 limits assumed: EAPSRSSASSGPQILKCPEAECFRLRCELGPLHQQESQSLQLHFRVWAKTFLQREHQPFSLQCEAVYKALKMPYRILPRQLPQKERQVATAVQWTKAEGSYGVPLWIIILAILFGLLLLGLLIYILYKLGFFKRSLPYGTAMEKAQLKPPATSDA
# UniProt P08648, 42-894 limits assumed: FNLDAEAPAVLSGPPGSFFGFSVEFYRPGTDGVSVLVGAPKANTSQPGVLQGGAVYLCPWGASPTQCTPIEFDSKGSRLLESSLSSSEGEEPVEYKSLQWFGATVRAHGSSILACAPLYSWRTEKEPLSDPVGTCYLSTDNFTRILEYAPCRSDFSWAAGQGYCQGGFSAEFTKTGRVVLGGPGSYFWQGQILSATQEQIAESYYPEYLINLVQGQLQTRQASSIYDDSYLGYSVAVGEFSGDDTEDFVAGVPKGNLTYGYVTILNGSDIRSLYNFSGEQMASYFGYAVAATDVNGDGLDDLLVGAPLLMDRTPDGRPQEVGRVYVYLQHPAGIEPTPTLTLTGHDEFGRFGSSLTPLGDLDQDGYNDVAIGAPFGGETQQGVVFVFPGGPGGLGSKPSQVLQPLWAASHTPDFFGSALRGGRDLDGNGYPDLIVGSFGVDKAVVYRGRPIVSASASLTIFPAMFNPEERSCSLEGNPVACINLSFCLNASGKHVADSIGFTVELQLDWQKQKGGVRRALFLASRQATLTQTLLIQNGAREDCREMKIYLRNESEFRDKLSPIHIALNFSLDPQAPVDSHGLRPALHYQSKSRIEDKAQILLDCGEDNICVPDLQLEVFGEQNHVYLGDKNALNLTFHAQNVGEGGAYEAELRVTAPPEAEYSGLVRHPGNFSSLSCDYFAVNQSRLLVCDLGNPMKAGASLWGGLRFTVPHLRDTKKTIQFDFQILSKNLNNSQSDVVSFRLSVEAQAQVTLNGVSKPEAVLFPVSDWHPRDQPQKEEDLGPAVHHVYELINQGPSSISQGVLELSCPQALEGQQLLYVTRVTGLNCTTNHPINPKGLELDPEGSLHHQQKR
# Molecular target: Integrin alpha-5/beta-1 (Homo sapiens, UniProt P05556+P08648)
# Test: Antagonist activity at integrin alpha5beta1 in human K562 cells assessed as inhibition of cell adhesion
# Assay type: functional, cell-based
structure (smiles),measurement,value
CNc1cccc(CCOc2ccc(C[C@H](NC(=O)c3c(C)noc3C)C(=O)O)cc2)n1,IC50,< 8 nM
